This note sets out measurements from patent EP4691487A1, “METHOD FOR INCREASING CONCENTRATION OF MACROMOLECULAR DRUG IN TUMOR TISSUE” (priority 2023, dated 2024).

Data set [1] concerns human ovarian cancer xenograft model LD2-0032-200651. Briefly: Anti-tumor efficacy in human ovarian cancer xenograft model LD2-0032-200651 (Example 10). It counts as in vivo, NU/NU mice. On the procedure:
Human ovarian cancer (poorly differentiated adenocarcinoma) tumor tissue (model number LD2-0032-200651) was passaged to FP3+5 and used in this efficacy experiment.
The tumor masses of human ovarian cancer LD2-0032-200651 in vivo transplanted tumors were cut into pieces of approximately 3 mm × 3 mm × 3 mm (approximately 45 to 60 mg) and inoculated subcutaneously into NU/NU mice.
The mice were observed after inoculation and the growth of the tumor was monitored. On the Day 18 after inoculation, when the average tumor volume of the tumor-bearing mice reached 180.47 mm^3, the grouping and dosing were performed. The day of grouping and dosing was defined as Day 0. Dosing and Grouping
The first dose of Enhertu began on the third day after grouping.
Tumor volume and tumor-bearing mouse weight were measured twice a week using a vernier caliper. The tumor volume was calculated as V = 0.5 a × b^2, where a and b represent the long and wide diameters of the tumor, respectively; Relative tumor proliferation rate T/C (%): The calculation formula is as follows: T/C % = TRTV / CRTV × 100 % [formula] (TRTV: RTV of the treatment group; CRTV: RTV of the negative control group).
(§1) The relative tumor volume (RTV) was calculated based on the results of tumor measurement using the formula RTV = TVi /TV0, where TV0 is the average tumor volume measured at the time of grouping and dosing (i.e., do), and TVi is the average tumor volume at a particular measurement. TRTV and CRTV data were taken on the same day.
(§2) Tumor growth inhibition rate TGI (%) = [1-(Tti-Tt0)/ (Vci-Vc0)] ×100, Tti is the average tumor volume of the compound group after the start of dosing, Tt0 is the average tumor volume of the compound group at the first dose, Vc0 is the average tumor volume of the vehicle control group at the first dose, and Vci is the average tumor volume of the vehicle control group after the start of dose.
The body weight of all tumor-bearing mice was measured twice weekly. The relative weight change after dosing was calculated: RCBW(%) = (BWi - BW0)/BW0×100, where BWi is the weight after the start of dosing and BW0 is the weight at the time of the first dose. Tumor masses were weighed and photographed at the end of the experiment.
(§3) All data are expressed as mean ± SEM, where SEM = SD/SQRT (n), and n = number of animals in each experimental group. One-way ANOVA was used to compare tumor volumes between the treatment and control groups. All data were analyzed using GraphPad, and p < 0.05 was considered significant.
Background: Xenograft models place foreign cells or tissue in a host animal.

Data set [2] deals with LU-01-1626 human lung cancer patient-derived xenograft (PDX) model. Briefly: Anti-tumor efficacy in LU-01-1626 human lung cancer PDX model (Example 11). It is filed as in vivo, female NOD-SCID mice. On the procedure: Human lung cancer tumor tissue, passaged to FP5, was used in this efficacy experiment.
Each mouse was inoculated subcutaneously with a LU-01-1626 FP5 tumor piece (approximately 30 mm^3) on the right flank for tumor growth. Treatment began on Day 18 after tumor implantation, when the average tumor size reached approximately 109 mm^3. The animals were divided into groups using Excel-based randomization software and stratified randomization was performed according to their tumor volume. Each group consisted of 4 tumor-bearing mice. The test samples were administered to the mice according to the protocol shown in Table 40 of the experimental design.
The primary endpoint was whether tumor growth could be delayed or if the mice could be cured. Tumor volume and tumor-bearing mouse weight were measured twice a week using a vernier caliper. The tumor volume was calculated as V = 0.5 a × b^2, where a and b represent the long and wide diameters of the tumor, respectively.
as §2
Relative tumor proliferation rate T/C (%): The calculation formula is as follows: T/C % = TRTV / CRTV × 100 % [formula] (TRTV: RTV of the treatment group; CRTV: RTV of the negative control group).
as §1
One-way analysis of variance was performed to compare tumor volumes between groups. […] All data were analyzed using SPSS 29.0, and p < 0.05 was considered statistically significant.

For data set [3], the system named is human rectal cancer xenograft model LD1-0038-361855. Briefly: Anti-tumor efficacy in human rectal cancer xenograft model LD1-0038-361855 (Example 9). It counts as in vivo, NU/NU mice. On the procedure:
Human rectal cancer tumor tissue (case model number: LD1-0038-361855) was passaged to FP5+2 and used in this efficacy study.
The tumor masses of human rectal cancer LD1-0038-361855 in vivo transplanted tumors were cut into pieces of approximately 3 mm × 3 mm × 3 mm (approximately 45 to 60 mg) and inoculated subcutaneously into NU/NU mice. The mice were observed after inoculation and the growth of the tumor was monitored. On the 23rd day after inoculation, when the average tumor volume of the tumor-bearing mice reached 156.69 mm^3, grouping and dosing were performed. The day of grouping and dosing was defined as day 0. Dosing and Grouping
Measurement of tumor volume and body weight of tumor-bearing mice: Tumor volume was measured twice a week using a vernier caliper, and the formula for calculating tumor volume was V = 0.5 a × b^2, where a and b represent the long and wide diameters of the tumor, respectively; Relative tumor proliferation rate T/C (%): The calculation formula is as follows: T/C % = TRTV / CRTV × 100 % (TRTV: RTV of the treatment group; CRTV: RTV of the negative control group). The relative tumor volume (RTV) was calculated based on the results of tumor measurement using the formula RTV = TVi /TV0, where TV0 is the average tumor volume measured at the time of grouping and dosing (i.e., d0), and TVi is the average tumor volume at a particular measurement. TRTV and CRTV data were taken on the same day.
as §2
At the end of the experiment, the tumor masses were weighed and photographed.
as §3

Data set [4] is described as follows: Body weight, survival and tolerability in NCI-N87 & NIH-3T3 xenograft mice (Example 7). It counts as in vivo, BALB/c-nude mice. As to the method:
The development of this experimental protocol and any modifications were evaluated and approved by the Institutional Animal Care and Use Committee (IACUC) before implementation. The use and welfare of experimental animals were conducted in accordance with the guidelines of the Association for Assessment and Accreditation of Laboratory Animal Care (AAALAC). Animal health and mortality were monitored daily. Routine examinations included observation of tumor growth and the effects of drug treatment on daily animal behavior, such as activity, food and water intake (visual observation only), body weight change, physical signs, or other abnormalities. Group deaths and adverse reactions were recorded based on the number of animals in each group.
The experiment was carried out according to the dosing regimen. During the experiment, the animals' activities such as feeding and drinking were observed every day, and the animal body weights were recorded three times a week. For the co-inoculated NCI-N87 human gastric cancer cells and NIH-3T3 mouse embryonic fibroblasts, on day 35 after grouping and dosing, the average body weight of the control group increased from 18.5 g on Day 0 to 22.0 g, with a body weight gain of 18.4%. […] The average body weight of the Enhertu + IN10018 (3 + 25 mg/kg) combination therapy group increased from 18.9 g on Day 0 to 20.7 g on Day 35, with a body weight change rate of 9.5%. […] Table 29: Evaluation of Body Weight Changes of the Test Substances in the BALB/c-nude Mouse Xenograft Model of NCI-N87 & NIH-3T3 Cells (Based on Data on Day 35 After Grouping and Dosing)

Data set [5] concerns human gastric cancer NCI-N87 cells and mouse embryonic fibroblasts NIH-3T3 cells. Briefly: Anti-tumor efficacy in subcutaneous xenograft co-inoculated with NCI-N87 and NIH-3T3 cells (Example 7). It is filed as in vivo, BALB/c-nude mice. On the procedure:
Human gastric cancer cell line NCI-N87 (source: Nanjing Cobioer Biotechnology Co., Ltd., Art. No: CBP60491) was maintained and passaged by INXMED (NANJING) CO., LTD. Cells were cultured as monolayers in RPMI-1640 medium supplemented with 10% fetal bovine serum at 37°C in a 5% CO2 incubator. Cells were routinely digested and passaged two to three times weekly using trypsin-EDTA.
Mouse embryonic fibroblast NIH-3T3 cells (Nanjing Cobioer Biotechnology Co., Ltd., Art. No: CBP60317) were maintained and passaged by INXMED (NANJING) CO., LTD. Cells were cultured as monolayers in RPMI-1640 medium supplemented with 10% fetal calf serum at 37°C in a 5% CO2 incubator. Cells were routinely digested and passaged two to three times a week using trypsin-EDTA. When both cell lines reached the exponential growth phase and a confluence of 80%-90%, cells were harvested, counted, and inoculated.
For mice inoculated with a mixture of NCI-N87 and NIH-3T3 cells, 0.2 mL of a mixed cell suspension containing 10×10^6 NCI-N87 cells and 5×10^5 NIH-3T3 cells was subcutaneously inoculated into the right back of each mouse. On day 8 after inoculation, when tumor volumes reached approximately 154 mm^3, mice inoculated with a mixture of NCI-N87 and NIH-3T3 cells were randomly divided into groups based on tumor volume and dosed.
The experimental indicator is to examine whether tumor growth is inhibited, delayed, or cured. Tumor diameter is measured three times a week using a vernier caliper. Tumor volume is calculated using the formula: V = 0.5 × a × b^2, where a and b represent the major and minor diameters of the tumor, respectively.
The tumor inhibition efficacy of a compound was evaluated using the TGI (%), which reflects the rate of tumor growth inhibition. […]

Regarding Enhertu, the “Tumor volume /Day 0” value in data set [1] (Day 0 (baseline), mean ± SEM) was found to be 181.25± 16.18 mm^3. For the same substance, the “TGI(%) /Day 21” value in data set [1] (Day 21) was 43.20%. Further, the “Tumor volume /Day 21” value in data set [1] (Day 21, Enhertu 3 mg/kg QW*3 IV, IN10018 25 mg/kg QD*21 PO, mean ± SEM) was 1294.64 ±285.36 mm^3. The “Relative tumor volume / Day 21” value in data set [1] (Day 21, RTV = TVi/TV0) turned out to be 5.54. Further, in data set [1] (Day 21, TRTV/CRTV), the “T/C(%)/ Day 21” value amounted to 61.08%. The “TGI (%)” value is given as 70.28% in data set [2] (Day 31, [1-(T31-T0)/(V31-V0)]×100) and -3.8% in data set [5] (day 35, Enhertu 3 mg/kg i.p. Day 7, Day 28, IN10018 25 mg/kg PO QD x 5W). Also, the “T/C (%)” value in data set [2] (Day 31, group mean tumor volume of treatment group divided by that of control group) is 33.58%. Moreover, the “Tumor volume (mm^3) Day 31” value in data set [2] (Enhertu 10/3/6 mg/kg IV QW, IN10018 25/12.5 mg/kg PO QD, Mean ± SEM) turned out to be 664 ± 157 mm^3. Besides, in data set [3] (Day 24, Enhertu 3 single dose (D9) IV, IN10018 12.5 QD*25 PO), the “tumor volume growth inhibition rate TGI (%)” value stood at 83.27%. For the same substance, in data set [3] (Day 24, Enhertu 3 single dose (D9) IV, IN10018 12.5 QD*25 PO, mean ± SEM), the average tumor volume came out at 361.30 ± 113.01 mm^3. The “relative tumor proliferation rate T/C (%)” value in data set [3] (Day 24, TRTV/CRTV, Enhertu 3 single dose (D9) IV, IN10018 12.5 QD*25 PO) is 26.11%. The substance also came in with an average tumor weights in data set [3] (end of the experiment (Day 24)) of 0.278 ± 0.083 g. Besides, the tolerability entry in data set [4] (35-day dosing cycle, Enhertu (3 mg/kg), IN10018 (25 mg/kg)) is “tolerated”. In addition, the “Body weight change rate (%)” value in data set [4] ((W35-W0)/W0, day 35) was determined as 16.9%. In addition, in data set [4] (day 0 (baseline), mean ± SEM), the “Weight on day 0” value came to 17.9 ± 0.3 g. The “Weight on day 35” value in data set [4] (day 35, Enhertu 3 mg/kg, IN10018 25 mg/kg, mean ± SEM) is 20.9 ± 0.6 g. Also, the Animal survival in data set [4] (number of animal survival on day 0/on day 35) is recorded as 6/6. In addition, the “Tumor volume on day 0 (mm^3)” value in data set [5] (day 0 of grouping and dosing (baseline), mean ± SEM) came to 154.5±10.6 mm^3. The “Tumor volume on day 35 (mm^3)” value in data set [5] (day 35, Enhertu 3 mg/kg i.p. Day 7, Day 28, IN10018 25 mg/kg PO QD x 5W, mean ± SEM) worked out at 1575.2±547.4 mm^3.
